Test results taken from patent publication US20180207148A1 (priority 2015, published 2018).

Conditions: following 2 consecutive daily doses of 60, 90, or 150 mg/m^2

CC(=O)O[C@H]1C(=O)[C@@]2(C)[C@H]([C@H](OC(=O)c3ccccc3)[C@]3(O)C[C@H](OC(=O)[C@H](O)[C@@H](NC(=O)c4ccccc4)c4ccccc4)C(C)=C1C3(C)C)[C@]1(OC(C)=O)CO[C@@H]1C[C@@H]2O [Paclitaxel, 5,20-Epoxy-1,2,4,7,10-13-hexahydroxytax-11-en-9-one-4,10-diacetate 2-benzoate 13-ester with (2R,3S)—N-benzoyl-3-phenylisoserine]
accumulation in paclitaxel Cmax and AUC: minimal to no accumulation
